Assays:
BT474 xenografts = assay: PET imaging of ^89Zr-trastuzumab radioimmunoconjugates in BT474 xenograft mice; format: in vivo, female, athymic nude mice; details: imaged over 9 d
Experimental: PET imaging was carried out in order to directly compare the in vivo behavior and pharmacokinetics of DFO- and HOPO-based ^89Zr-trastuzumab radioimmunoconjugates. […] One aspect of this method is that sufficient time must elapse after administration of the bifunctional ligand-antibody complex to allow for unbound bifunctional ligand-antibody complex to clear the subject (e.g., by renal or fecal clearance). At that point, the bound bifunctional ligand-antibody complex can be appropriately imaged with high contrast due to the lack of noise that can be generated by unbound bifunctional ligand-antibody complexes. […] The generated image of the tumor can be used for gaining quantitative information about the tumor and/or one or more tumor cells present, such as its/their dimensions (e.g., size, volume), shape, or rate of growth or shrinkage. Additional information about one or more moiety expressions (e.g., protein expressions) of the tumor can also be gained based on whether association of one or more antibodies utilized in the composition occurs with one or more tumor cells in the subject. […]
PET imaging experiments were conducted on a microPET Focus 120. […] PET data for each mouse were recorded via static scans at various time points (n=4) between 6 h and 9 d. […] Images were analyzed using ASIPro VM software (Concorde Microsystems).

BT474 cells = assay: Immunoreactivity assay of ^89Zr-labeled trastuzumab complexes; format: cell-based; details: 1 h incubation
Experimental: To calculate the immunoreactivity, ^89Zr-complexes were incubated with BT474 cells for 1 h (Table 10).
The treated cells were then pelleted via centrifugation (600 G for 2 min), aspirated, and washed twice with cold PBS before removing the supernatant and counting the activity associated with the cell pellet. The activity data were background-corrected and compared with the total number of counts in appropriate control samples. Immunoreactive fractions were determined by linear regression analysis of a plot of (total/bound) activity against (1/[normalized cell concentration]). No weighting was applied to the data, and data were obtained as n=3.

| Substance | bone uptake in PET images (BT474 xenografts) | Immunoreactive Fraction (BT474 cells) [%] | Immunoreactive Fraction (BT474 cells; listed as 89Zr-DFO-Trastuzumab) [%] | Immunoreactive Fraction (BT474 cells; listed as 89Zr-HOPO-Trastuzumab) [%] |
| --- | --- | --- | --- | --- |
| ^89Zr-DFO-trastuzumab | evidence of bone uptake | 88.6±2.1 | 88.6 ± 2.1 | – |
| ^89Zr-HOPO-trastuzumab | very low bone uptake | 92.4±6.8 | – | 92.4 ± 6.8 |

From patent publication US10821195B2, “Compositions for therapeutics, targeted PET imaging and methods of their use” (Memorial Sloan Kettering Cancer Center, priority 2015, dated 2020)
